Experimental data taken from PMC2653193, “A Unique Dual Activity Amino Acid Hydroxylase in Toxoplasma gondii” (PLoS ONE, 2009).

Test system: N[C@@H](Cc1ccc(O)cc1)C(=O)O
Assay: purified protein
Settings: 500 µM 6-MPH4, 500 µM NADH, 10 µM ferrous ammonium sulphate, 50 mM HEPES, pH 7.5, 32°C, 0-200 µM tyrosine

Δ239TgAaaH1 (Toxoplasma gondii)
Km: 3.22 ± 1.15 µM

Δ239TgAaaH2 (Toxoplasma gondii)
Km: 4.12 ± 0.10 µM
